Data reported in article PMC8713996, “An anti-tuberculosis compound screen using a zebrafish infection model identifies an aspartyl-tRNA synthetase inhibitor” (Disease Models & Mechanisms, 2021).

System: E. coli GK1161434
Details: zebrafish, in vivo

Which “Survival of E. coli-infected embryos” value does the source give for `CO/N=C(\C(=O)N[C@@H]1C(=O)N2C(C(=O)O)=C(CSc3nc(=O)c(=O)[nH]n3C)CS[C@H]12)c1csc(N)n1` [ceftriaxone] here?
The value was “did not increase the survival”.
